Organism: Homo sapiens
Experiment: Protein binding in human plasma by equilibrium dialysis method
Conditions: read-out: PPB (converted)

O=C(O)/C=C/c1ccc(NC(=O)C2(NC(=O)c3ccc4c(c3)nc(-c3ccoc3)n4C3CCCCC3)CCCC2)cc1
fraction unbound: 0.038
